How the values were obtained:
[1] = test system: adult male rats with CCI injury; assay: Rotarod vestibulomotor performance after CCI; format: in vivo, rat; settings: CCI animals, PID23; hCG every 2 days
Method: Rats were placed on a rotating rod accelerating at a constant rate (1 rotation per second per second) and allowed to run for up to 300 s. Time elapsed before fall was recorded (n=9-12/group, *p<0.05; letters indicate differences between groups and times).
To test the effects of hCG on cognitive and motor recovery, 69 adult male rats (5-month of age) with CCI injury (group size, n=31), sham surgery (n=24) or non-surgical control (NSCon; n=14) were immediately administered saline (n=32) or hCG (200 mIU/kg/2 days n=37) over 28 d. On PID 2, 6, 9, 13 and 23, all rats were tested for vestibulomotor performance (Rotarod) and on PID 6-10 and 20-22 the same rats were tested for learning and memory (Morris water maze (MWM)), respectively. Probe Test 1 and 2 (i.e., swimming in tank for 60 s without MWM platform) were conducted on PID 12 and 24. At the end of behavioral testing, rat brains were collected, digitally imaged and analyzed for gross lesion size (% of whole brain surface area). Note that there was considerable overlap between NSCon and Sham groups (see small standard deviations for the data) and are therefore presented as one group.
To test vestibulomotor performance, rats were trained on a Rotarod. […] Improvements in vestibular balance and motor coordination induced by hCG were maintained over the 23 days post-injury, indicating utility of hCG for improving vestibulomotor function.

subject with TBI = assay: Human clinical study, Glasgow Coma Scale (planned); format: in vivo; settings: hCG 5-200 IU/kg 3 times weekly, 1-18 months; in post-menopausal female with E2 and/or P4
Description: A subject with TBI as tested by the Gleason Coma Scale (GCS) with a score of 12 or less will be administered 3 times weekly a dose of hCG (e.g., 5-200 IU/kg) for 1-18 months. The subject will be retested cognitively on a quarterly basis on the GCS (and by neuroimaging).
Separately, a post-menopausal person with TBI as tested by the Gleason Coma Scale (GCS) with a score of 12 or less will be administered 3 times weekly a dose of hCG (e.g., 5-200 IU/kg) in combination with transdermal administration of E2 and/or P4 (e.g., Estradiol Transdermal Patch, e.g. Vivelle/Minivelle 0.025-0.1 mg/day, or Climara 0.025 to 0.1 mg/day together with transdermal progesterone cream, e.g. ProGest, 10-40 mg/day) for 1-18 months. The subject will be retested cognitively on a quarterly basis on the GCS (and by neuroimaging).

## hCG: heterodimeric glycoprotein hormone (α SEQ ID NO:1, β SEQ ID NO:2); given to the rats as Pregnyl
[1]
  Rotarod latency to fall: 167.6 ± 16.7 s
Subject with TBI
  GCS score compared to before treatment or untreated controls: improved score in the GCS test

— patent US20240115662A1, “METHODS OF TREATING HYPOGONADOTROPIC HYPOGONADISM AND COGNITION IMPAIRMENT FOLLOWING A TRAUMATIC BRAIN INJURY” (WISCONSIN ALUMNI RESEARCH FOUNDATION, priority 2021, published 2024)
